This data set can be described thus: Cyclic voltammetry of peptides and copper-peptide complexes. The data set is classed as physicochemical. Particulars: 500 μM peptide in 10 mM KCl; scan rates 0.2, 0.1, 0.05 V/s.

The structures appear in SMILES notation.

For `CC(C)C[C@H](NC(=O)[C@H](CCCNC(=N)N)NC(=O)[C@H](Cc1ccccc1)NC(=O)CN)C(=O)N[C@H](C(=O)N[C@@H](CC(N)=O)C(=O)N[C@@H](Cc1ccccc1)C(=O)NCC(=O)N[C@@H](Cc1ccc(O)cc1)C(=O)N[C@@H](Cc1ccccc1)C(=O)N[C@@H](CCC(=O)O)C(=O)N1CCC[C@H]1C(=O)NCC(=O)O)[C@@H](C)O` [CaPep], the “potential peaks in cyclic voltammogram” value is “None of the tested peptides showed any unique and distinguishable potential peaks”.

These data come from patent publication US20240368664A1, “LIVE YEAST BIOSENSORS AND METHODS OF USE THEREOF” (priority 2021, published 2024).
